Results reported in ChEMBL document CHEMBL1125615, “A highly specific aldose reductase inhibitor, ethyl 1-benzyl-3-hydroxy-2(5H)-oxopyrrole-4-carboxylate, and its congeners” (J Med Chem, 1991).

Legend:
[1] = target: T1, Aldo-keto reductase family 1 member A1 (Rattus norvegicus, UniProt P51635); assay: Inhibitory activity was measured against renal outer medulla aldehyde reductase
T1 sequence (P51635 whole entry): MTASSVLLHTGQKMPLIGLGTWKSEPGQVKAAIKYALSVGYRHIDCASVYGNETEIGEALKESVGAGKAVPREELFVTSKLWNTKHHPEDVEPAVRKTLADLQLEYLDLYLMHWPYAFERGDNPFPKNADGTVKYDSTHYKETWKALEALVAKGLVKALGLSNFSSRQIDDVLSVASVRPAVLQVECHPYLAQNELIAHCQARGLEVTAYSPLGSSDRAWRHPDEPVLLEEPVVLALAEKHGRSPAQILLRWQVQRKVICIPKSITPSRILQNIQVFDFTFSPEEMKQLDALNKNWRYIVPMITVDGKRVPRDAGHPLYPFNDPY

[2] = Selectivity ratio measured as the IC50 ratio of aldehyde/aldose reductase values
Procedure, shortened: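 Ratio of the pig kidney aldehyde reductase IC50 to the rat lens aldose reductase IC50. Both purified enzymes were assayed in 50 mM potassium phosphate pH 7.0 with 0.1 mM NADPH and 5 mM 3-pyridinecarboxaldehyde, started with substrate, reading NADPH loss at 340 nm for 12 min at 25 °C. IC50s came from log-linear regression.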

[3] = target: T1, Aldo-keto reductase family 1 member A1; assay: Inhibitory activity was measured against renal cortex aldehyde reductase
[4] = target: T1, Aldo-keto reductase family 1 member A1; assay: Inhibitory activity was measured against whole kidney aldehyde reductase
[5] = target: Aldo-keto reductase family 1 member B1 (Rattus norvegicus) (UniProt P07943); assay: Inhibitory activity was measured against renal inner medulla aldose reductase
[6] = target: T2, Aldo-keto reductase family 1 member B1 (Rattus norvegicus, UniProt P07943); assay: Inhibitory activity measured against rat lens aldose reductase using 3-pyridinecarboxaldehyde as substrate
[7] = target: T2, Aldo-keto reductase family 1 member B1; assay: Percent inhibition of sorbitol accumulation in rat lens was measured; format: tissue-based, Lens of camera-type eye

| SMILES | IC50 [1] | Selectivity ratio [2] | IC50 [3] | IC50 [4] | IC50 [5] | IC50 [6] | IC50 [7] |
| --- | --- | --- | --- | --- | --- | --- | --- |
| CCOC(=O)C1=C(O)C(=O)N(Cc2ccccc2)C1 | 210 µM | > 4000 | 480 µM | 14 µM | 28 nM | 47 nM | 47 nM |
| O=C1NC(=O)[C@@]2(CCOc3ccc(F)cc32)N1 [SORBINIL] |  |  |  |  |  | 280 nM |  |
